# Measurements: PubChem BioAssay AID2283688 (EPA ToxCast)
# Several values for one entry are separate records, joined by “and”; a condition that tells them apart may be missing. Identical values can stand only once. Listed are the inconclusive results; actives and inactives stand elsewhere. Rule for the calls: active = hit-call score of the fitted dose curve at least 0.9, where 1 is the maximum; inconclusive = response in the unintended direction; inactive = score below 0.9.
# Read-out: xenobiotic metabolism (CYP2C9), CYP2C9 (gene 1559)
# Assay: CLD_CYP2C9_24hr: CellzDirect (CLD) Gene Expression Assay for xenobiotic metabolism (CYP1A2) at 24 hours;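 note: potency for induction meaning a rise in CYP2C9 mRNA over DMSO vehicle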
# Experimental: CLD_24hr is a cell-based, multiplexed-readout assay that uses hepatocyte, a human liver primary cell, with measurements taken at 24 hours after chemical dosing in a 96-well plate.CLD_CYP2C9_24hr is one of 16 assay component(s) measured or calculated from the CLD_24hr assay. It is designed to make measurements of mRNA induction, a form of inducible reporter, as detected with chemiluminescence signals by Quantitative Nuclease Protection Assay (qNPA) technology.Data from the assay component CLD_CYP2C9_24hr was analyzed at the endpoint, CLD_CYP2C9_24hr, in the positive analysis fitting direction relative to DMSO as the negative control and baseline of activity. […] Furthermore, this assay endpoint can be referred to as a primary readout. […]
# Human hepatocyte cultures were treated daily for two consecutive days with fresh dosing solutions containing appropriate concentrations of the 320 ToxCast chemicals (chemical identities were blinded to CellzDirect and other ToxCast collaborators), vehicle control (0.2% DMSO), and positive control inducers as summarized in Table 1. […] Cultures for each treatment group (i.e., media, vehicle [0.2% DMSO], positive control inducers [multiple concentrations], and the ToxCast chemicals [multiple concentrations]) were observed and cell morphology was assessed relative to vehicle control cultures at each harvest time point (0, 6, 24, or 48 h). […]
row,Compound,AC50
1,CC(C)OP(=S)(OC(C)C)SCCNS(=O)(=O)c1ccccc1,inconclusive: 20 µM and inconclusive: 12.4 nM
2,O=C1C2CC=CCC2C(=O)N1SC(Cl)(Cl)C(Cl)Cl (configuration not stated),inconclusive: 20 µM
